According to patent US20140335050A1, “METHODS, COMPOSITIONS, AND KITS FOR THE TREATMENT OF CANCER” (The General Hospital Corporation, priority 2011, published 2014):

Legend:
Format in all cases: cell-based, human
[1] = system: HeLa cervical carcinoma cells; test: Surface antibody staining and flow cytometry (MHC Class I/II)
Method: (§1) Intracellular staining and flow cytometric analyses of cytoplasmic Melan-A/MART-1, and gp100 expression were performed as described previously. Cells were fixed with 1% formaldehyde, permeabilized with 0.1% saponin, stained with monoclonal antibodies to melanocyte antigens. Antibodies were obtained with specificity for: Melan-A/MART-1 from Vector Labs (Burlingame, Calif.); gp100/HMB45 from DakoCytomation (Carpinteria, Calif.) and then visualized with goat anti-mouse FITC-conjugated secondary antibody from Invitrogen (Frederick, Md.). The level of EGFP was determined by flow cytometry of unfixed cells washed and resuspended in 1×PBS. Surface staining of MHC Class I was carried out using the antibody W6/32 on cells harvested with Cell Stripper from MediaTech Inc. (Manassas, Va.) and carried out on ice.
(§2) Cell were seeded at 1×10^6 cells in a T25 flask with 10 ml of media for the 4 day IFN-beta pre-treatments. Cells were then harvested and plated in 24 well plate at 1×10^5 cells per well in 1 ml of media for 3 day treatments.
(§3) For surface staining of HLA Class I and II antigens, cells were harvested using CellStripper™ from Mediatech (Manassas, Va.). All staining steps were performed on ice. Following a first incubation with antibody to Class I (W6/32) or Class II (L243) for 30 minutes. Stained cells were washed twice with cold PBS and then stained with a goat anti-mouse FITC secondary antibody to allow for quantitative analysis by flow cytometry. For evaluation of cytoplasmic antigens, including Melan-A/MART-1 and gp100, cells were first fixed in paraformaldehyde and permeabilized with saponin as previously described. Staining for cytoplasmic antigens was carried out at room temperature (22° C.).

[2] = system: MCF-7 breast cancer cells; test: as above; conditions: MCF-7
Method: as §1, §2, §3

[3] = system: Raji B cell lymphoma cells; test: as above
Method: as §1, §2, §3

[4] = system: U2-OS osteosarcoma cells; test: as above; conditions: U2-OS
Method: as §1, §2, §3

[5] = system: MU89 tumor cells; test: Co-culture of treated tumor cells with HLA-A2 specific TCR Jurkat T cells, IL-2 ELISA; conditions: two separate experiments (FIG. 20)
From the text: FIG. 9 is a series of graphs showing MCH class I expression. Treatment of MU89 tumor cells with IFN-β and HSP90 inhibitors increases IL-2 secretion by HLA-A2 reactive Jurkat T cells. Two seperate experiments are shown. For each experiment, cells were stained for MHC Class I levels, and the geometric mean of flow histograms is graphed in the top two graphs. The same cells were used in a co-culture experiment to assay HLA-A2 levels using a HLA-A2 reactive Jurkat T cell. The results of an IL-2 ELISA are plotted in the graphs on the bottom of the figure. The average and standard deviation of three replicates is shown.
We utilized an in vitro cell line system we have developed to study recognition of tumor cells by T cells after MHC Class I up-regulation. We have engineered a Jurkat T cell line whose sole expressed TCR recognizes HLA-A2 regardless of the presented peptide, such that any cell line expressing surface HLA-A2 will be recognized by means of the binding specificity of this TCR. […]
In order to evaluate T cell recognition of tumor cells, a TCR-transduced Jurkat cell line was used as previously described. […] Tumor cells were treated with either iHsp90 or interferons in combination, as described in the text, and the treated tumor cells were collected and counted after 3 to 6 days of treatment. […] The level of IL-2 is calculated by comparison to a standard curve of known quantities of IL-2.

[6] = 4 day IFN-β pre-treatment (5000 Units/ml), then 3 days with fresh IFN-β, with PU-H71 0.3 mg/ml where labelled (label IFN-β: no inhibitor)
[7] = 4 day IFN-β pre-treatment (5000 Units/ml), then 3 days without IFN-β, with PU-H71 0.3 mg/ml where labelled (label IFN-β: no inhibitor)
[8] = single agent for 3 days, no IFN-β pre-treatment, IFN-β 5000 Units/ml, PU-H71 0.3 mg/ml
[9] = three days, IFN-β 5000 Units/ml, PU-H71 0.075-0.3 mg/ml
[10] = three days, IFN-β 5000 Units/ml, IFN-γ 100 ng/ml, PU-H71 0.3 mg/ml

B1: IFN-β: IFN-β-1a (Avonex) obtained from Biogen-Idec; SEQ ID NO: 1 (protein, listed as Homo sapiens)
chain: MSYNLLGFLQRSSNFQCQKLLWQLNGRLEYCLKDRMNFDIPEEIKQLQQFQKEDAALTIYEMLQNIFAIFRQDSSSTGWNETIVENLLANVYHQINHLKTVLEEKLEKEDFTRGKLMSSLHLKRYYGRILHYLKAKEYSHCAWTIVRVEILRNFYFINRLTGYLRN
modifications: (1)..(166) IFN-beta-1a
L243 (MHC Class II surface staining) ([1]; HELA, single agent): 5.2
W6/32 (MHC Class I surface staining) ([1]; HELA, single agent): 370.8
Class I MHC, geometric mean of surface staining (W6/32) ([1]; HeLa, 4 day IFN-β pre-treatment (5000 Units/ml), then 3 days with fresh IFN-β, with PU-H71 0.3 where labelled (label IFN-β: no inhibitor)): 107
Class I MHC, geometric mean of surface staining (W6/32) ([1]; HeLa, 4 day IFN-β pre-treatment (5000 Units/ml), then 3 days without IFN-β, with PU-H71 0.3 where labelled (label IFN-β: no inhibitor)): 120
Class I MHC, geometric mean of surface staining (W6/32) ([1]; HeLa, single agent for 3 days, no IFN-β pre-treatment, IFN-β 5000 Units/ml, PU-H71 0.3): 126
MHC Class II, geometric mean of surface staining (L2443) ([1]; HeLa, three days, IFN-β 5000 Units/ml, IFN-γ 100 ng/ml, PU-H71 0.3 mg/ml): 8
MHC Class I, geometric mean of surface staining (W6/32) ([1]; HeLa, three days, IFN-β 5000 Units/ml, IFN-γ 100 ng/ml, PU-H71 0.3): 240
MHC Class I, geometric mean of surface staining (W6/32) ([1]; HeLa, three days, IFN-β 5000 Units/ml, PU-H71 0.075-0.3): 185
Class I MHC, geometric mean of surface staining (W6/32) [2, 6]: 208
Class I MHC, geometric mean of surface staining (W6/32) [2, 7]: 165
L243 (MHC Class II surface staining) ([2]; single agent): 10.3
W6/32 (MHC Class I surface staining) ([2]; single agent): 368.2
Class I MHC, geometric mean of surface staining (W6/32) [2, 8]: 62
MHC Class I, geometric mean of surface staining (W6/32) [2, 9]: 62
Class I MHC, geometric mean of surface staining (W6/32) [3, 6]: 61
Class I MHC, geometric mean of surface staining (W6/32) [3, 7]: 63
L243 (MHC Class II surface staining) ([3]; single agent): 129.8
W6/32 (MHC Class I surface staining) ([3]; single agent): 81
Class I MHC, geometric mean of surface staining (W6/32) [3, 8]: 102
MHC Class I, geometric mean of surface staining (W6/32) [3, 10]: 81
MHC Class II, geometric mean of surface staining (L2443) [3, 10]: 278
MHC Class I, geometric mean of surface staining (W6/32) [3, 9]: 28
L243 (MHC Class II surface staining) ([4]; single agent): 1.9
W6/32 (MHC Class I surface staining) ([4]; single agent): 290.3
MHC Class I, geometric mean of surface staining (W6/32) [4, 10]: 82
MHC Class II, geometric mean of surface staining (L2443) [4, 10]: 4
MHC Class I, geometric mean of surface staining (W6/32) [4, 9]: 180
Increase of IL-2 levels on co-culture with Jurkat HLA-A2 specific TCR cell line ([5]; listed as IFN beta): 4 fold
Increase of IL-2 levels on co-culture with Jurkat HLA-A2 specific TCR cell line ([5]; listed as IFN-beta): enhanced
